PDI inh – inhibitors of human protein disulfide isomerase. P07237. PDI insulin aggregation turbidity, A650, 90 min. inhibition, % at 10 µM. actives 0.052% (n = 350,000). AID 588391;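 active = mean inhibition across replicates of 30% or more, whatever share of single replicates reach that level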
SMARCA2 activ – SMARCA2 function activation, primary screen; MG213 cells, MMTV-luciferase reporter, dexamethasone, overnight; activation, % at 9.1 µM; actives 1% (n = 370,000); in the data active = activation above about 7.8%;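 note: 0% = vehicle wells and 100% = reference activator wells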
UUG fidelity – yeast start codon fidelity modulation; activity score, % at 18.7 µM; actives 0.13% (n = 350,000); S. cerevisiae UUG-firefly luciferase reporter, luminescence/redox ratio; AID 602363;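 active means replicate mean at a twofold rise or more, about +100% in these data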;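 further: firefly luciferase made from a UUG start codon reports start codon fidelity; reporter light over untreated wells divided by growth signal over untreated wells; some hits fall short of that in this replicate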
NR1D1 modulator – modulates human Rev-erb alpha binding to DNA. P20393. Rev-erbα–FITC-DNA binding, fluorescence polarization, 90 min. activity, % at 10 µM. actives 0.79% (n = 370,000). AID 1259318;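 active = activity above about 14%, limit read from the data; passing the limit was not always enough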;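 note: 0% = DMSO wells with 35 nM protein and 100% = DMSO wells with 750 nM protein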
ERp5 inh – blocks human ERp5 reductase activity on insulin | actives 0.05% (n = 350,000) | ERp5 insulin aggregation, absorbance 650 nm, 90 min | Q15084 | inhibition, % at 9.99 µM;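 active = mean replicate inhibition above about 25%, with every replicate also reaching it, limit read from the data, passing the limit was not always enough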
INS-1E GSIS act – GLuc luminescence reporter in INS-1E cells, primary screen for activators of glucose-dependent secretion of insulin; actives 0.61% (n = 370,000); activation, % at 16.6 µM; INS-1E GLuc reporter insulin secretion, 2-3 h;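 active = lowest replicate activation of at least 40%, so every replicate reaches that level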;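 note: 0% = median of neutral control wells and 100% = median of IBMX positive control wells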
Rev-erbA confirm – confirmation of modulators of human Rev-erb alpha DNA binding | shares compounds with NR1D1 modulator | Rev-erb alpha FITC-DNA binding, fluorescence polarization, 90 min | activation, % at 25 µM | actives 61% (n = 3,000);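 active = activation at or above a set limit, or at least 3 SD above the negative control mean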;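 note: 0% = 35 nM protein with DMSO and 100% = 750 nM protein high control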
RORg DNA counter – RORgamma DNA-binding activity, dose-response counter-screen; shares compounds with NR1D1 modulator; purified RORgamma protein-FITC-DNA binding, fluorescence polarization; IC50, µM; actives 8% (n = 910); AID 1259320;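 active = Compounds whose fitted half-maximal concentration for disrupting protein-DNA binding is below 10 micromolar; the record names Rev-erb in its text, so the target is in doubt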
* hit, by the source's call; i = inactive; / = no result. Hits are enriched below; roughly 2.1% of the tested compounds scored in any of these assays.

SMILES	PDI inh	SMARCA2 activ	UUG fidelity	NR1D1 modulator	ERp5 inh	INS-1E GSIS act	Rev-erbA confirm	others
Cc1ccc(NP(=O)(c2ccc(N(C)C)cc2NC(=O)c2cccs2)N2CCOCC2)cc1Cl (stereo not drawn)	19.4	-2.9	-26.9	-4.8	/	-14.4	/
Cc1ccc(NP(=O)(c2ccc(N(C)C)cc2NC(=O)c2cccs2)N2CCOCC2)cc1 (stereo not drawn)	-5.7	-0.2	/	24.0*	/	1.4	13.0
CN(C)c1ccc(P(=O)(Nc2ccccc2)N2CCOCC2)c(NC(=O)c2cccs2)c1 (stereo not drawn)	1.1	0.8	-8.1	42.3*	/	-29.0	19.0*
CC(C)NC(=O)N(C)C[C@H]1Oc2ncc(C#CCC3CCCC3)cc2C(=O)N([C@H](C)CO)C[C@@H]1C	/	/	-1.0	/	1.3	-3.7	/
O=C(NCC[C@H]1CC[C@H](NC(=O)c2ccc3c(c2)OCO3)[C@@H](CO)O1)Nc1ccc(Cl)cc1	/	/	25.4	/	-1.4	-2.7	/
O=C(C[C@@H]1CC[C@@H](NC(=O)Nc2cccc(F)c2)[C@H](CO)O1)NCC1CC1	/	/	-16.1	/	0.4	3.7	/
C[C@H](CO)N1C[C@H](C)[C@H](CN(C)Cc2ccncc2)Oc2ccc(NS(C)(=O)=O)cc2C1=O	/	/	-7.5	/	-3.6	17.5	/
CCN(CC)c1ccc2c(O)cc(=O)oc2c1	2.2	-1.7	/	0.7	-5.4	-6.6	/
CCN(CC)c1ccc(C(=O)OCc2cc(=O)oc3cc(O)ccc23)cc1	-8.7	-2.4	-1.6	33.3*	/	7.7	17.5*
CC(=O)Nc1ccc(NC(=S)NC(=O)c2cc3ccccc3o2)cc1	-0.5	-1.5	/	-2.6	4.3	7.4	/
Cc1cc(C)cc(C(=O)NC(=S)Nc2ccc(-c3cc4ccccc4oc3=O)cc2)c1	-1.4	-6.9	-12.3	70.0*	/	42.0*	36.1*
O=C(Cc1cccc2ccccc12)Nc1ccc(-c2cc3ccccc3oc2=O)cc1	-1.6	-8.7	-15.4	27.1*	/	/	-2.2
Cc1ccc(C(=O)NC(=S)Nc2ccc(-c3cc4ccccc4oc3=O)cc2)c(C)c1	-10.1	-6.0	-22.6	67.9*	/	/	18.0*
C[C@@H]1CN([C@@H](C)CO)C(=O)c2cc(NS(=O)(=O)c3ccc(F)cc3)ccc2O[C@@H]1CN(C)Cc1ccccc1	/	/	9.1	/	4.1	-0.6	/
CC(C)NC(=O)Nc1ccc2c(c1)CC(=O)N([C@@H](C)CO)C[C@@H](C)[C@@H](CN(C)C(=O)NC1CCCCC1)O2	/	/	/	/	-0.3	3.7	/
C[C@H](CO)N1C[C@H](C)[C@H](CN(C)Cc2ccncc2)Oc2ccc(NC(=O)Cn3cnnn3)cc2CC1=O	/	/	-18.7	/	0.3	22.3	/
O=C1NCCOCc2cnnn2CC[C@H]1Cc1ccc(F)cc1	/	/	/	/	/	14.1	/
CCCNC(=O)N1CC2(CN(Cc3ccc(F)cc3)C2)c2c([nH]c3cc(OC)ccc23)[C@H]1CO	/	/	/	/	4.2	-18.4	/
CN1[C@@H]2Cn3c(ccc(-c4ccccc4)c3=O)[C@H]1[C@@H](C(=O)Nc1nccs1)[C@@H]2CO	/	/	/	/	-8.7	-6.7	/
c1cnc(SCC2CCCCC2)c(-c2nc3ccccc3[nH]2)c1	/	4.8	/	31.7*	/	/	32.6*	RORg DNA counter=>40
O=C(CSc1ncccc1-c1nc2ccccc2[nH]1)N1CCc2ccccc21	-12.6	0.6	-16.9	28.5*	2.7	-3.2	25.1*
CN(C)C(=O)C[C@@H]1C[C@@H]2c3cc(NC(=O)Nc4ccccc4)ccc3O[C@@H]2[C@H](CO)O1	/	/	3.0	/	/	-4.0	/
Cc1cccc2cc(C(c3nnnn3Cc3ccccc3)N3CCN(c4ccccc4)CC3)c(=O)[nH]c12 (stereo not drawn)	-8.2	-2.3	-13.1	185.0*	/	/	142.6*	RORg DNA counter=>40
C[C@@H]1CN([C@H](C)CO)C(=O)c2cc(NC(=O)NC3CCCCC3)ccc2O[C@H]1CN(C)Cc1ccccc1	/	/	4.1	/	-15.1	-2.0	/
Cc1cc(NC(=O)CSc2cc(C)c3ccccc3n2)no1	2.0	-3.4	-21.8	22.6*	-3.7	-4.5	3.8

Entries from the list above containing an NH in an aromatic ring:
SMILES	PDI inh	SMARCA2 activ	UUG fidelity	NR1D1 modulator	ERp5 inh	INS-1E GSIS act	Rev-erbA confirm	others
CCCNC(=O)N1CC2(CN(Cc3ccc(F)cc3)C2)c2c([nH]c3cc(OC)ccc23)[C@H]1CO	/	/	/	/	4.2	-18.4	/
c1cnc(SCC2CCCCC2)c(-c2nc3ccccc3[nH]2)c1	/	4.8	/	31.7*	/	/	32.6*	RORg DNA counter=>40
O=C(CSc1ncccc1-c1nc2ccccc2[nH]1)N1CCc2ccccc21	-12.6	0.6	-16.9	28.5*	2.7	-3.2	25.1*
Cc1cccc2cc(C(c3nnnn3Cc3ccccc3)N3CCN(c4ccccc4)CC3)c(=O)[nH]c12 (stereo not drawn)	-8.2	-2.3	-13.1	185.0*	/	/	142.6*	RORg DNA counter=>40

2 entries drawn at random from the list so far:
SMILES	PDI inh	SMARCA2 activ	UUG fidelity	NR1D1 modulator	ERp5 inh	INS-1E GSIS act	Rev-erbA confirm	others
Cc1ccc(C(=O)NC(=S)Nc2ccc(-c3cc4ccccc4oc3=O)cc2)c(C)c1	-10.1	-6.0	-22.6	67.9*	/	/	18.0*
O=C1NCCOCc2cnnn2CC[C@H]1Cc1ccc(F)cc1	/	/	/	/	/	14.1	/

More compounds
SMILES	PDI inh	SMARCA2 activ	UUG fidelity	NR1D1 modulator	ERp5 inh	INS-1E GSIS act	Rev-erbA confirm	others
Cc1cc(NC(=O)CSc2nc(C(C)(C)C)nc3ccccc23)no1	-2.4	-2.8	/	35.5*	-4.2	22.0	13.1
Cc1cc(NC(=O)CSc2c3c(nc4ccccc24)CCC3)no1	/	3.3	-9.2	5.1	2.1	/	/
CCCc1nc(SCC(=O)Nc2cc(C)on2)c2ccccc2n1	13.5	-4.7	-11.8	4.0	/	/	/
CCCCn1c(SCC(=O)Nc2cc(C)on2)nc2ccccc2c1=O	-2.0	-0.2	-28.6	42.9*	/	44.1	14.1
Cc1cc(NC(=O)CSc2ncnc3ccccc23)no1	2.1	-1.6	-18.3	-4.2	-7.1	17.3	/
Cc1cc(NC(=O)CSc2nc(-c3cccs3)nc3ccccc23)no1	-0.9	-1.4	12.0	28.2*	-2.2	7.7	19.5*
O=C(Cn1cc(C(F)(F)F)cc(Cl)c1=O)Nc1cccc(Cl)c1	1.1	-3.2	/	10.5	5.2	22.9	/
O=C(Cn1cc(C(F)(F)F)cc(Cl)c1=O)Nc1cc(Cl)cc(Cl)c1	-9.4	-0.2	/	58.6*	-0.6	9.2	26.8*
O=S(=O)(c1ccccc1)N1CCN(c2cccc(Cl)c2)CC1	-1.3	-3.8	-21.1	-3.0	2.5	1.6	/
CCOC(=O)C1CCN(S(=O)(=O)c2ccc(-c3ccc(=O)[nH]n3)o2)CC1	19.3	-2.9	-17.7	5.7	-0.2	3.7	/
O=c1ccc(-c2ccc(S(=O)(=O)N3CCN(c4cccc(Cl)c4)CC3)o2)n[nH]1	-21.3	-2.0	-6.0	75.6*	1.3	0.2	86.3*	RORg DNA counter=i
O=c1ccc(-c2ccc(S(=O)(=O)N3CCN(c4ccccc4)CC3)o2)n[nH]1	-0.2	-0.5	-16.2	120.2*	0.2	7.1	61.8*	RORg DNA counter=>40
O=C(/C=C/c1ccc(OCCCF)cc1)Nc1ccnc(-c2cccnc2)n1	-3.0	-0.9	-13.4	24.3*	-1.9	-4.7	22.0*
O=S(=O)(Nc1nc2ccccc2nc1N1CCN(c2ccccc2)CC1)c1ccc(F)cc1	-15.6	-1.8	/	1.7	3.0	-8.0	/
Cc1ccccc1C(=O)N=c1ccn(-c2nc3ccccc3nc2NS(=O)(=O)c2ccc(F)cc2)cc1	-8.6	4.3	-18.8	35.3*	0.5	32.5	91.8*	RORg DNA counter=>40
O=C(N=c1ccn(-c2nc3ccccc3nc2NS(=O)(=O)c2ccccc2)cc1)c1cccs1	-4.7	-3.8	/	174.2*	4.1	-6.1	144.8*	RORg DNA counter=>40
O=C(Cc1ccccc1)N1CC(=O)N2[C@H](C1)[C@@H](c1ccc(C3=CCCC3)cc1)[C@@H]2CO	/	/	/	/	2.8	1.4	/
COc1ccc(CN2CCCC(CO)(Cc3ccc(F)cc3)C2)cc1C (stereo not drawn)	1.4	5.5	-6.2	12.6*	-2.3	/	3.1

Screens as filed in PubChem.
